According to PubChem BioAssay AID1259372 (The Scripps Research Institute Molecular Screening Center, 2018):
This is a selection; strong and weak results do not stand in their true shares. Active and inactive are the calls of the source.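 How the source made its calls: active means inhibition above a cutoff derived from the DMSO control wells (cut at about 28% in these data); inactive means the rest.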

Protein sequences, listed by entry. Tags and fused reporters are not part of them.
UniProt O75030, whole entry: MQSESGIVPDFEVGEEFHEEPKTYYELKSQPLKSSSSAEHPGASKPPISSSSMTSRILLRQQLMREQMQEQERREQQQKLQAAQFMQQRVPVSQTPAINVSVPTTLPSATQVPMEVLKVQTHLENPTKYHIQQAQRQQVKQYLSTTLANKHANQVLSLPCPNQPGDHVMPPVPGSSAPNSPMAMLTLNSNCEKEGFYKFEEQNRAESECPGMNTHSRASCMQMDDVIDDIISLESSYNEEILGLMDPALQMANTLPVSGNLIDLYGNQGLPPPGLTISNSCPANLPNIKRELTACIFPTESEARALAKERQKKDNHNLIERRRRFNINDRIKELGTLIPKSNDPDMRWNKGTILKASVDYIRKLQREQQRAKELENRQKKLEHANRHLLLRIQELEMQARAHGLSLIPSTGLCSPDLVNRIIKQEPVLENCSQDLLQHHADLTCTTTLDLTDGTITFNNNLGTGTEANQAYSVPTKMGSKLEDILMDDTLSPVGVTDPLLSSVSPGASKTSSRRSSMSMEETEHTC

These molecules were tested against Microphthalmia-associated transcription factor (Homo sapiens) (UniProt O75030) (assay: blockers of human MITF dimerization – biochemical, AlphaScreen, triplicate, confirmation (AID 1259372)). Conditions: AlphaScreen MITF homodimerization, biotin/His-MITF beads; at 2.6 µM; stronger effect = higher value.

SMILES	inhibition
CCOP(C)(=S)SCN(CC(=O)O)C(=O)OC (stereo not drawn)	inactive: 1.23%
O=[N+]([O-])c1cc2[nH]c3cc([N+](=O)[O-])c([N+](=O)[O-])cc3c2cc1[N+](=O)[O-]	active: 71.8%
CN(C)CCOC(=O)C(O)(c1ccccc1)C1CCCCC1 (stereo not drawn)	inactive: -3.87%
